Experimental data reported in patent US20250026716A1, “SYNTHESIS PROCESS OF FATTY ACYL TAURINE SALT” (ZHANGJIAGANG GREAT CHEMICAL CO., LTD., priority 2021, published 2025).

The molecules below were run on chicken embryo chorioallantoic membrane (assay: Irritancy (stimulus) test, chicken embryo chorioallantoic membrane method).
From the text: Perform irritancy test on products prepared in Examples 2-3 and Comparative Examples 2-3, using the chicken embryo chorioallantoic membrane method, as shown in Table 5.

Point of comparison: “lauroyl-sodium methyl taurate [Comparative Example 2]”, Bleeding time 9.8. Against it:
- sodium cocoyl taurine [Example 3] — higher, 39.5
- lauroyl-sodium methyl taurate [Comparative Example 3] — lower, 8.5

Point of comparison: “lauroyl-sodium methyl taurate [Comparative Example 2]”, Coagulation time 301. Against it:
- sodium cocoyl taurine [Example 3] — the same, 301
- CCCCCCCCCCCC(=O)NCCS(=O)(=O)O.[Na] [Example 2, sodium lauroyl taurine] — the same, 301
- lauroyl-sodium methyl taurate [Comparative Example 3] — the same, 301

Point of comparison: `CCCCCCCCCCCC(=O)NCCS(=O)(=O)O.[Na]` [Example 2, sodium lauroyl taurine], Hemolysis time 301. Against it:
- sodium cocoyl taurine [Example 3] — the same, 301
- lauroyl-sodium methyl taurate [Comparative Example 2] — lower, 116.5
- lauroyl-sodium methyl taurate [Comparative Example 3] — lower, 136.2

Point of comparison: sodium cocoyl taurine [Example 3], IS value 4.36. Against it:
- lauroyl-sodium methyl taurate [Comparative Example 2] — higher, 9.16
- lauroyl-sodium methyl taurate [Comparative Example 3] — higher, 8.72
